Patent publication US6458347B1, “Drug complex” (Asahi Kasei Kabushiki Kaisha, priority 1996, dated 2002)

Test: Dissolution in physiological saline
Format: physicochemical
Details: not given

Substance	dissolution ratio in terms of paclitaxel [mg/mL]
PEG-2′-Ile-paclitaxel [compound (17)]	2.8
carboxymethylated dextran-7-Gly-Gly-Phe-Gly-paclitaxel [compound (35)]	7.4
carboxymethylated dextran-2′-Ile-paclitaxel [compound (15)]	1.6
carboxymethylated dextran-2′-Gly-Gly-Phe-Gly-paclitaxel [compound (33)]	3.7
carboxymethylated dextran-2′-Gly-paclitaxel [compound (3)]	3.7
PEG-2′-Gly-paclitaxel [compound (5)]	3.6

Test: not given
Details: serum of B-16 melanoma-transplanted mouse, 37° C.

Substance	release of paclitaxel as compared to that from compound (33)
carboxymethylated dextran-7-Gly-Gly-Phe-Gly-paclitaxel [compound (35)]	slow
